US20210395311A1, “CYCLIC PEPTIDE DIMERS” (New York University, priority 2019, published 2021)

Test: Solubility of the synthetic peptides
Type: physicochemical
Conditions: 10% acetonitrile in water was used to dissolve
Source text: Peptide 324822 was not the precursor of peptide 326573. It was synthesized separately. For 324822, protected linear peptide was cleaved from resin and cyclized in DMF following the above procedure. After removing the protecting groups, the peptide was isolated by RP-HPLC purification. Both peptides were not soluble in 100% aqueous solution. 10% acetonitrile in water was used to dissolve the peptides.

c (Gly-Met (O)-Met (O)-Cys-Val-Thr-His-Cys-Asn-Gly (SEQ ID NO:1, where the methionine residues are oxidized)) [compound 326573]
solubility in 100% aqueous solution: not soluble
